Measured values reported in US20210047394A1 (Hoffmann-La Roche, published 2021).

The chains behind the UniProt entries cited, without tags or fusion partners. A line that says so, or that is headed by a name, gives the form on record, which may keep a tag or linker.
rhVEGF (R&D Systems Cat. No. 293-VE), UniProt P15692, other isoform, or with tags, fused parts or gaps limits assumed: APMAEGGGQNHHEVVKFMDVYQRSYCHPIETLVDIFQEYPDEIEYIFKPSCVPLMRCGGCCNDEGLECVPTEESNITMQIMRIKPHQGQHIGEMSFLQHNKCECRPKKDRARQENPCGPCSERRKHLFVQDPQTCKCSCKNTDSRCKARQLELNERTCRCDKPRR
huVEGF121 (R&D Systems, UK, Cat. No. 298-VS), UniProt P15692, other isoform, or with tags, fused parts or gaps limits assumed: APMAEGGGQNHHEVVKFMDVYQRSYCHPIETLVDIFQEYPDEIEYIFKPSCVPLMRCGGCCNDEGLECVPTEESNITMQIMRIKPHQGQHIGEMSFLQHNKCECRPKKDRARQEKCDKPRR

What was measured:
[1] = biological target: T1, rhVEGF (R&D Systems Cat. No. 293-VE) (human, UniProt P15692 181-395); test: SPR (Biacore T100), antibody captured via anti-human IgG, rhVEGF analyte, 37 C
T1 construct: Analyte in the Biacore assays; also called VEGF-A

[2] = biological target: T1, rhVEGF (R&D Systems Cat. No. 293-VE); test: SPR (Biacore T100), antibody captured via anti-hIgG-Fc, VEGF analyte, 25 C
[3] = biological target: T2, huVEGF121 (R&D Systems, UK, Cat. No. 298-VS) (human, UniProt P15692-9 27-147); test: inhibition of huVEGF121 binding to coated hVEGF-R (ELISA)
T2 construct: domain: VEGF121; also called hVEGF

B1: <VEGF> HuMab G6-31 (antibody, V domains shown)
VH: EVQLVESGGGLVQPGGSLRLSCAASGFTISDYWIHWVRQAPGKGLEWVAGITPAGGYTYYADSVKGRFTISADTSKNTAYLQMNSLRAEDTAVYYCARFVFFLPYAMDYWGQGTLVTVSS
VL: DIQMTQSPSSLSASVGDRVTITCRASQDVSTAVAWYQQKPGKAPKLLIYSASFLYSGVPSRFSGSGSGTDFTLTISSLQPEDFATYYCQQGYGNPFTFGQGTKVEIK
notes: 'standard' human IgG1 antibody; also called <VEGF> G6-31; G6-31 (1000)
- Kd [1]: 1.93 pM
- koff [1]: 9.33e-06 s⁻¹
- kon [1]: 4.83e+06 M⁻¹ s⁻¹
- t1/2 [1]: 20.6 h
- Kd [2]: < 100 pM
- IC50 [3]: 1.43 µg/mL
